We go through 1 compound from patent publication US9394290B2, “Selective CYP11B1 inhibitors for the treatment of cortisol dependent diseases” (UNIVERSITAET DES SAARLANDES CAMPUS SAARBRUECKEN, priority 2010, dated 2016).

Sequences of proteins named here, by UniProt entry; tags and fusion partners are left off. Residues count along the entry.
UniProt P19099, 25-503: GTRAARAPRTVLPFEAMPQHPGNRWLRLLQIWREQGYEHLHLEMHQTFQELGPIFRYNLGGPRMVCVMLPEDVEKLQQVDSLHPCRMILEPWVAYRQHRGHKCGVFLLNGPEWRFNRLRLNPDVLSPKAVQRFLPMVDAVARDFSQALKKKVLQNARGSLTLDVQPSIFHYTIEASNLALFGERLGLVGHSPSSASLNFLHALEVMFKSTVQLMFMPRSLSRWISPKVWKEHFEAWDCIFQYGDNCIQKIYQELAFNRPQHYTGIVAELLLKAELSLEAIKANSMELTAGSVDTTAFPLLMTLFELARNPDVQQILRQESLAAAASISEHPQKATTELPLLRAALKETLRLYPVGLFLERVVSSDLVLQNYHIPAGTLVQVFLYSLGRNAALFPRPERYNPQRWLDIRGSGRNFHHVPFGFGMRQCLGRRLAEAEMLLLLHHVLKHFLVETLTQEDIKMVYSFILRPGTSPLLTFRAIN

For the assay, the target named is human CYP11B2 (Homo sapiens (Human), UniProt P19099). The assay can be described thus: Cellular assay for CYP11B2 inhibition (V79MZh11B2 hamster fibroblasts, substrate 11-deoxycorticosterone). To be noted: read-out: IC50 value CYP11B2, Hamster fibroblasts expressing human CYP11B2, 100 nM, mean of at least three experiments, n.i. = no inhibition at an inhibitor concentration of 500 nM.

Regarding `CC(C)(C(=O)c1cccnc1)c1cccnc1` [MTP, metyrapone, reference compound], the IC50 came to 72 nM.
